For four molecules, EC50 results are on record in patent US20220274914A1, “TRICYCLIC DERIVATIVES AS HYPOXIA INDUCIBLE FACTOR-2(ALPHA) INHIBITORS” (NIKANG THERAPEUTICS, INC., priority 2019, published 2022).

Chains of the proteins cited; added tags and fusions are not shown.
UniProt Q99814, whole entry: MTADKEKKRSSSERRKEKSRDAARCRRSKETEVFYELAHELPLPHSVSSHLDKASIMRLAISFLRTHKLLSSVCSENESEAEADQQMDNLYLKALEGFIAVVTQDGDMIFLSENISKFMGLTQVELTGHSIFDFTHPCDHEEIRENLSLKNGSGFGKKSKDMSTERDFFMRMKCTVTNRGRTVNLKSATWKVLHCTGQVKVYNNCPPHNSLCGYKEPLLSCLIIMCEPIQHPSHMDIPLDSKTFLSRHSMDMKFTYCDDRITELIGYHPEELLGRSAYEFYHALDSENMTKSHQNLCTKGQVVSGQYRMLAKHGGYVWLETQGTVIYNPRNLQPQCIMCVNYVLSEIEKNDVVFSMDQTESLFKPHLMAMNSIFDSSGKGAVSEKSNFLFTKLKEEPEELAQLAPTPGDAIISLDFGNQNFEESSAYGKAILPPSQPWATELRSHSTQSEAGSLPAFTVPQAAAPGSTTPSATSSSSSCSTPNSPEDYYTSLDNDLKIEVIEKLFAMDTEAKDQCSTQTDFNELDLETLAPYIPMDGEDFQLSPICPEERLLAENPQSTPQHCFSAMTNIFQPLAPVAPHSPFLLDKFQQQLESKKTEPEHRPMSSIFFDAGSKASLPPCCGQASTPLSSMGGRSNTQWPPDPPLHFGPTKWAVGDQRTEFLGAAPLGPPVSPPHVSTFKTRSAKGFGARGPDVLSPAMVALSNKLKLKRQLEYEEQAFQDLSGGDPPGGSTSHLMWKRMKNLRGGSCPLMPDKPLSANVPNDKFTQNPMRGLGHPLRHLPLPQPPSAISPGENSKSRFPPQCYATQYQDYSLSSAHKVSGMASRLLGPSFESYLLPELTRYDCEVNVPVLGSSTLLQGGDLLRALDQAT

The assay has as its target HIF-2α (Homo sapiens, UniProt Q99814). Kind of assay: VEGF ELISA Assay. Conditions: VEGF expression in 786-0 cells; VEGF in culture medium by ELISA; four parameter dose-response fit. Here is the method: The ability of the disclosed compounds to inhibit HIF-2α was measured by determining VEGF expression in 786-0 cells. About 7500 786-0 cells were seeded into each well of a 96-well, white, clear bottom plate (07-200-566, Fisher Scientific) with 200 ul growth medium. Four hours later, compounds were dispensed into wells by Tecan D300e digital dispenser with starting concentration of 10 uM and […] of dilution down to 1 nM as final concentration. Each concentration of treatment was performed in duplicate. About 20 hours later, medium was removed and fresh medium was added, followed by compounds treatment as described above. 24 hours later, cell culture medium was collected to determine VEGF concentration using an ELISA kit (R&D systems, cat #DVE00) following the manufacturer's instruction.
The EC50 is calculated by GraphPad Prism using the dose-response-inhibition (four parameter) equation. The plate with cells was then subjected to CellTiter-Glo luminescence cell viability assay (Promega) to determine the effect of these compounds on cell numbers after the above treatment.
A general note: An ELISA detects its analyte on a solid surface through an enzyme-linked reagent.
The term EC50 denotes the concentration giving half of the maximal effect. Consider `N#Cc1cc(F)cc(Oc2ccc3c4c2C(F)CCC4(O)C(F)(F)C3(F)F)c1` (single isomer, unassigned) [the other of 6-1 and 6-2], for which the EC50 worked out at 403 nM. This lies in the sub-micromolar range. Under `N#Cc1cc(F)cc(Oc2ccc3c4c2C(F)CCC4(O)C(F)(F)C3(F)F)c1` (single isomer, unassigned) [one of 6-1 and 6-2] stands 35 nM; under `N#Cc1cc(F)cc(Oc2ccc3c4c2C(F)CCC4(O)C(F)(F)C3(F)F)c1` (single isomer, unassigned) [other of 6a and 6b], 4700 nM; under `N#Cc1cc(F)cc(Oc2ccc3c4c2C(F)CCC4(O)C(F)(F)C3(F)F)c1` (single isomer, unassigned) [one of 6a and 6b], 40 nM.
